# This is a selection; strong and weak results do not stand in their true shares. Activity calls are given as the source filed them. Rule as the data show it: active = inhibition mostly above about 40% (no sharp cut-off); inactive = mostly below about 27%.
# Protein sequences, listed by entry. Tags and fused reporters are not part of them.
# UniProt Q96LD8, whole entry: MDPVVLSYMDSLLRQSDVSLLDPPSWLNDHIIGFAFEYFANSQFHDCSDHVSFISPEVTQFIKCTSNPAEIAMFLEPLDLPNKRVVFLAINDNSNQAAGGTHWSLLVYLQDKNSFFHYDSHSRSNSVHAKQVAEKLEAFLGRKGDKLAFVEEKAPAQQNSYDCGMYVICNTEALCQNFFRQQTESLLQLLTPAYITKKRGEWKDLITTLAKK
# Target: Sentrin-specific protease 8 (Homo sapiens) (UniProt Q96LD8)
# Assay: human SENP8 protease inhibitors, primary screen, biochemical, fluorescence, Nedd8 protein substrate, uHTS (AID 602440)
# Conditions: recombinant SENP8, Nedd8 substrate fluorescence; at 20 µM; stronger effect = higher value
row,Structure (SMILES),inhibition
1,CCN(CC)CCCNc1ccccc1[N+](=O)[O-].O=[N+]([O-])c1cc([N+](=O)[O-])c(O)c([N+](=O)[O-])c1,inactive: 26.6%
2,CCOC(=O)c1ccc(NP(C)(=O)Oc2ccc(F)cc2)cc1 (stereo not given),inactive: 12.8%
3,COc1ccc(OP(C)(=O)Nc2ccc(SC(F)(F)F)cc2)cc1 (stereo not given),inactive: 6.6%
4,Cc1c([N+](=O)[O-])cc([N+](=O)[O-])c(Br)c1[N+](=O)[O-],inactive: 29.7%
5,CCN(CC)CCCOC(=O)C(O)(c1ccccc1)C1CCCCC1 (stereo not given),inactive: 14.2%
6,CP(=O)(Nc1ccccc1)Oc1ccc(F)cc1 (stereo not given),inactive: 5.8%
7,CCCCCOc1ccc(NP(C)(=O)Oc2ccc(Cl)cc2Cl)cc1 (stereo not given),inactive: 9.7%
8,O=[N+]([O-])c1cc([N+](=O)[O-])c(OC2CCCCC2O)c([N+](=O)[O-])c1 (stereo not given),inactive: 9.3%
9,O=[N+]([O-])c1cc([N+](=O)[O-])c(Nc2ccc(Cl)cc2)c([N+](=O)[O-])c1,active: 53%
10,CP(=O)(Nc1ccccc1F)Oc1ccccc1 (stereo not given),inactive: 6.6%
11,CC(C)c1ccc(OP(C)(=O)Nc2ccc(SC(F)(F)F)cc2)cc1 (stereo not given),inactive: 7.9%
12,O=C(OC1CN2CCC1CC2)c1ccc([N+](=O)[O-])cc1 (stereo not given),inactive: 17.9%
13,O=C(OCCN1CCN(CCOCc2ccccc2)CC1)C(O)(c1ccccc1)c1ccccc1,inactive: 14.9%
14,CP(=O)(Nc1ccc(SC(F)(F)F)cc1)Oc1ccc(F)cc1 (stereo not given),inactive: 12.7%
15,CCOP(C)(=S)SCC(=O)NC(C)(CC)C(=O)O (stereo not given),inactive: 27%
16,CP(=O)(Nc1ccc2c(c1)OCCO2)Oc1ccccc1 (stereo not given),inactive: 22.2%
17,Cc1ccccc1NP(C)(=O)Nc1ccccc1C,inactive: 19.1%
18,O=[N+]([O-])c1cc([N+](=O)[O-])c(C(F)(F)F)c([N+](=O)[O-])c1O,inactive: 24.5%
19,COc1ccc(OP(C)(=O)Nc2cccc(Br)c2)cc1 (stereo not given),inactive: 13.7%
20,CN(C)CCOC(=O)C(O)(c1ccccc1)C1CCCCC1 (stereo not given),inactive: 17.1%
21,COc1ccc(NP(C)(=O)Oc2ccccc2OC)cc1 (stereo not given),inactive: -2.6%
22,O=[N+]([O-])c1ccc(OP2(=O)COCCO2)cc1 (stereo not given),inactive: 9.1%
23,Cc1cc(-c2cccc3ccccc23)c(C)cn1.O=[N+]([O-])c1cc([N+](=O)[O-])c(O)c([N+](=O)[O-])c1,inactive: 13.2%
24,O=[N+]([O-])c1cc([N+](=O)[O-])c(NCC2CCS(=O)(=O)C2)c([N+](=O)[O-])c1 (stereo not given),inactive: 33.1%
25,Cc1c(C(c2ccc3c(c2)OCO3)c2c(C)n(C)n(-c3ccccc3)c2=O)c(=O)n(-c2ccccc2)n1C.O=[N+]([O-])c1cc([N+](=O)[O-])c(O)c([N+](=O)[O-])c1,inactive: 13.7%
